Reference: patent publication US20240043382A1, “MODIFIED INDOLE ALKALOIDS FOR THERAPEUTIC USES” (priority 2020, published 2024)

Chains of the proteins cited; added tags and fusions are not shown. Residues count along the entry.
UniProt P28223, whole entry: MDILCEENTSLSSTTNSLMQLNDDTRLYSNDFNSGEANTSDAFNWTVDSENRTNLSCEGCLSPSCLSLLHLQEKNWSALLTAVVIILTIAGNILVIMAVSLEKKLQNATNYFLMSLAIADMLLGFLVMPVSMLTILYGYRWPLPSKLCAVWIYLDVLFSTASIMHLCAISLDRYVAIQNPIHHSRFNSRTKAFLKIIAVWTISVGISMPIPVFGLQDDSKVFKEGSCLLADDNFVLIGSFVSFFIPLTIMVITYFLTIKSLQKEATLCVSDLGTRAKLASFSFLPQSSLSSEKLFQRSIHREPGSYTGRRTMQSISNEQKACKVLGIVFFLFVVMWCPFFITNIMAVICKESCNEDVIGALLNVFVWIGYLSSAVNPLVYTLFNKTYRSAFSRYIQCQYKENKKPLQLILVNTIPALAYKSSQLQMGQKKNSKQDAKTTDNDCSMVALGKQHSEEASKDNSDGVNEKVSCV
UniProt P28335, 33-458 limits assumed: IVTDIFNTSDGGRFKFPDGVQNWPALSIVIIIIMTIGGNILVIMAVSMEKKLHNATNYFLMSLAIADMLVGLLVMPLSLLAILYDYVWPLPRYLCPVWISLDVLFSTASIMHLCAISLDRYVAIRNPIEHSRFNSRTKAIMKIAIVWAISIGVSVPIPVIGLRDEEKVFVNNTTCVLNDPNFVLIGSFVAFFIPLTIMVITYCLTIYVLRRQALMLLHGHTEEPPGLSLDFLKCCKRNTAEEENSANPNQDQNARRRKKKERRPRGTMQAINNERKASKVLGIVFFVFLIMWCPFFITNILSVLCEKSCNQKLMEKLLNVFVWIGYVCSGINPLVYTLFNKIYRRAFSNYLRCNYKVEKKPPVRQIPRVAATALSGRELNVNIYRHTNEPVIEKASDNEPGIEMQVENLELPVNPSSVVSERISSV

How the values were obtained:
[1] = target: human 5-HT2A (h5-HT2A) receptor (Homo sapiens, UniProt P28223); test: 5-HT2A receptor functional assay (Gq-mediated calcium flux) of saliva-hydrolyzed modified indole alkaloids; type: cell-based; details: 5HT2A agonist activity, compounds hydrolyzed by treatment with human saliva
[2] = target: human 5-HT2C (h5-HT2C) receptor (Homo sapiens, UniProt P28335); test: 5-HT2C receptor functional assay (Gq-mediated calcium flux) of saliva-hydrolyzed modified indole alkaloids; type: cell-based; details: 5HT2C agonist activity, compounds hydrolyzed by treatment with human saliva

For CC(C)N(C)CCc1c[nH]c2cccc(O[C@H]3O[C@H](CO)[C@@H](O)[C@H](O)[C@H]3O)c12, the “Emax % 5-HT (± SEM)” value ([1]; normalized to 5-HT (100%)) was 99.5 ± 1.0 % 5-HT, the EC50 ([1]; read-out: EC50 nM, Flp-In T-REx 293 cells expressing h5-HT2A, peak calcium flux) was 5.2 nM and the “Emax % 5-HT (± SEM)” value ([2]; normalized to 5-HT (100%)) was 79.2 ± 1.0 % 5-HT. It also gave an EC50 ([2]; read-out: EC50 nM, Flp-In T-REx 293 cells expressing h5-HT2C, peak calcium flux) of 182 nM.
